Among the data in ChEMBL document CHEMBL1159159 are inhibition values, retold here.

For assay [1], the target named is T1, Steryl-sulfatase (Homo sapiens) (UniProt P08842).
T1 sequence (whole entry): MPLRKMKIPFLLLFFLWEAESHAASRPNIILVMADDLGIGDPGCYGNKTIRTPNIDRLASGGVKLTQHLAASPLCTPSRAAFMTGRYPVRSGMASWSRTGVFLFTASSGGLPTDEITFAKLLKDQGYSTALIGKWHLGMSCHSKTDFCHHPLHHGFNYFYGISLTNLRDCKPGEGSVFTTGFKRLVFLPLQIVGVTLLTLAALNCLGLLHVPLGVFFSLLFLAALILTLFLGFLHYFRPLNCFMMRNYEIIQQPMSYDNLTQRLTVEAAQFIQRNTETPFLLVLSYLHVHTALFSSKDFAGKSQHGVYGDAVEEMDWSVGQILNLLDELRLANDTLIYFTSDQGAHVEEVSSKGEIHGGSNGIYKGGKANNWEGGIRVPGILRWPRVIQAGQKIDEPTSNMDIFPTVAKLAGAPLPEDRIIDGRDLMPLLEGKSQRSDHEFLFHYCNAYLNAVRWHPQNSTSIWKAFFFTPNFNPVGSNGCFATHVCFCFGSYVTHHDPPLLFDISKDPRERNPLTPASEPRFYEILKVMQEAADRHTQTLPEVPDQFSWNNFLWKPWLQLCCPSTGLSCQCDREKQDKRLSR
The assay can be described thus: Inhibition of estrone sulfatase at 1 uM in intact MCF-7 cells. The settings on record: MCF7.

In assay [2] the target is T1, Steryl-sulfatase (Homo sapiens). Nature of the assay: Inhibition of estrone sulfatase at 0.1 uM in intact MCF-7 cells. As to conditions: MCF7.

In the case of `C[C@]12CC[C@@H]3c4ccc(O[P@](C)(=O)S)cc4CC[C@H]3[C@@H]1CCC2=O`, the inhibition (commonly the relative decrease from the control value, in per cent) in assay [1] worked out at 74%; in assay [2] it was 52%.
